This is an account of results in PMC5891061, “Electrophysiological mechanisms of vandetanib-induced cardiotoxicity: Comparison of action potentials in rabbit Purkinje fibers and pluripotent stem cell-derived cardiomyocytes” (PLoS ONE, 2018).

Sequences of proteins named here, by UniProt entry; tags and fusion partners are left off. A change or cut given only in a name is not applied to a line headed by its entry.
UniProt Q12809: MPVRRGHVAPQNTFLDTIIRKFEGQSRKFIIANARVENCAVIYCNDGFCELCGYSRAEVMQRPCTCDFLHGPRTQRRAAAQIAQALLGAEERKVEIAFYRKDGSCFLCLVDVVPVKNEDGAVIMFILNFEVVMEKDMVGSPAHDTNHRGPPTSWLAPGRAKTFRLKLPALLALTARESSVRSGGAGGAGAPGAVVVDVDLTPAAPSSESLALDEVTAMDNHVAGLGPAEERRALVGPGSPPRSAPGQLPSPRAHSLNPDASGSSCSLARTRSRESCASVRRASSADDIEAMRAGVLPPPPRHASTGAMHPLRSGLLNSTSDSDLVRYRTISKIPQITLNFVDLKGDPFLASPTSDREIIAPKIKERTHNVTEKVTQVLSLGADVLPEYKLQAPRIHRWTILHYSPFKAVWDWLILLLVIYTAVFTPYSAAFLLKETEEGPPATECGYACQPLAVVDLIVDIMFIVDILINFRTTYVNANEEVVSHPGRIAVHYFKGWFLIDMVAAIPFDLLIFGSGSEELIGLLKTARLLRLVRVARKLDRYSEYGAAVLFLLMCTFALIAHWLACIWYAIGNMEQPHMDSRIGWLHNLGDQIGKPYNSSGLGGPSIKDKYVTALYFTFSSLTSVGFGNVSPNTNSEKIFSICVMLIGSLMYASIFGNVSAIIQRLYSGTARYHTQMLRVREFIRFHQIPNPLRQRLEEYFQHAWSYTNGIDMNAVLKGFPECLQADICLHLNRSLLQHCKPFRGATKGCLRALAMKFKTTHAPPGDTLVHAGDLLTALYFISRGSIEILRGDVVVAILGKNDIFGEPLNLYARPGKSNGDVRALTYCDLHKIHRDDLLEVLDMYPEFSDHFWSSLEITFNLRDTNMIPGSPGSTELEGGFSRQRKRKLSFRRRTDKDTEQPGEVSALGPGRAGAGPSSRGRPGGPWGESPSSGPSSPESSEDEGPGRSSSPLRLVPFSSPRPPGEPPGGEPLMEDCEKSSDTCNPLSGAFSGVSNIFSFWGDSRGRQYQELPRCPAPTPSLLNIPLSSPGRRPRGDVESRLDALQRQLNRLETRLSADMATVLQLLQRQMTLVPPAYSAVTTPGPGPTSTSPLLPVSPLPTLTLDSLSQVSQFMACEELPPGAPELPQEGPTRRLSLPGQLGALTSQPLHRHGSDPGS

SMILES strings stand for the structures.

The data set has as its target hERG (IKr) (Homo sapiens, UniProt Q12809). Description: Whole-cell patch clamp, IhERG tail current in transfected HEK293 cells. Conditions: 1 μM. On the technique in general: Patch clamp records ionic current or voltage across a cell membrane.

With `COc1cc2c(Nc3ccc(Br)cc3F)ncnc2cc1OCC1CCN(C)CC1` [Vandetanib], the IhERG current was found to be 744.0 ± 125.9.
